From patent US12448382B2, “Heterocyclic compounds for mediating tyrosine kinase 2 activity” (GUANGZHOU INNOCARE PHARMA TECH CO., LTD., priority 2019, dated 2025) come the findings set out here.

Amino acid sequences for entries named in this document (tags omitted). Residues count along the entry.
UniProt O60674, 826-1132 limits assumed: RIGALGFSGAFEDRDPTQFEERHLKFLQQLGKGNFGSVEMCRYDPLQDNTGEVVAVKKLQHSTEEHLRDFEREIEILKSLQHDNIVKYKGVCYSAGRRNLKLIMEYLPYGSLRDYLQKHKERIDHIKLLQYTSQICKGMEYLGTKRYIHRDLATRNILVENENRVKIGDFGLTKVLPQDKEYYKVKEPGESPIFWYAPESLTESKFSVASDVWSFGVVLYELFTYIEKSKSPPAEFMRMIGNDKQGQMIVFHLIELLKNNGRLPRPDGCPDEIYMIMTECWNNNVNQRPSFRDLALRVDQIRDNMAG
UniProt P29597, 871-1187 limits assumed: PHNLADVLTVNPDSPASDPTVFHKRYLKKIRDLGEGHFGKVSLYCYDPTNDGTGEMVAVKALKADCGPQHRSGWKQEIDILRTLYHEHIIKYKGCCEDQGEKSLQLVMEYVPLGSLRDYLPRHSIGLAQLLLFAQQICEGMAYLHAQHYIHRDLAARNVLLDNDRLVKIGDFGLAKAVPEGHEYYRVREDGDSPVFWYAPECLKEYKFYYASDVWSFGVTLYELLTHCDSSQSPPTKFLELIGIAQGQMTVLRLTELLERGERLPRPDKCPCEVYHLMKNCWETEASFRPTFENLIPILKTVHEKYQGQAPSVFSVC

Assay [1] addresses human recombinant JAK2 protein (Homo sapiens, UniProt O60674). In words: JAK2 Inhibition Assay (HTRF kinase assay). The settings on record: read-out: IC50 (nM) JAK2, human recombinant JAK2, 2.5 μM ATP substrate solution. The protocol:
The effect of the compounds of the present invention on the enzymatic activity of JAK2 was assessed by detecting the substrate phosphorylation level in a kinase reaction using the HTRF kinase assay detection kit (Cisbio, Cat. No. 62TK0PEC).
(§1) The experimental method is generally described below:
A reaction buffer contained the following components: an enzyme reaction buffer (1×), 5 mM MgCl2, 1 mM DTT and 0.01% Brij35 from the kit. A JAK2 kinase solution contained a human recombinant JAK2 protein (Carna Biosciences, 08-045) diluted in the reaction buffer to 0.15 ng/μL. A substrate reaction solution contained 2.5 μM ATP and 0.25 μM of a biotinylated tyrosine kinase substrate from the kit in the reaction buffer. A detection solution contained 0.1 ng/μL Eu^3+-labeled cage antibody (Cisbio, 61T66KLB) and 12.5 nM streptavidin-labeled XL665 (Cisbio, 610SAXLB) in the reaction buffer.
(§2) The test compound was dissolved in DMSO to 10 μM, followed by a serial 4-fold dilution with DMSO to a minimum concentration of 0.061 nM. Each concentration was further diluted 40-fold with the reaction buffer.
(§3) To a 384-well assay plate (Corning, 3674) were added 4 μL of compound solution and 2 μL of JAK2 kinase solution. The mixture was mixed and incubated at room temperature for 15 minutes, and then added with 4 μL of the substrate reaction solution. […] An Envision plate reader (Perkin Elmer) was then used to measure the progress of the reaction at 620 nm and 665 nm. The ratio of absorbances at 665 nm and 620 nm was positively correlated with the degree of substrate phosphorylation, therefore the activity of JAK2 kinase was detected. […] The percentage of inhibition on JAK2 kinase activity by the test compound was calculated using the following formula: Percentage of inhibition=100−100*(ratiocompound−ratio100% inhibition)/(ratio0% inhibition−ratio100% inhibition)
The IC50 value of the test compound was calculated from 8 concentration points using the XLfit softwere (ID Business Solutions Ltd., UK) by the following formula: Y=Bottom+(Top−Bottom)/(1+10^((log IC50−X)×slope factor)) […]
(In general: TR-FRET usually uses a lanthanide donor and a delayed reading to cut background.)

Assay [2] concerns the target human recombinant TYK2 protein (Homo sapiens, UniProt P29597). Kind of assay: TYK2 Inhibition Assay (HTRF kinase assay). The settings on record: read-out: IC50 (nM) TYK2, human recombinant TYK2, 11.25 μM ATP substrate solution. The protocol:
The effect of the compounds of the present invention on the enzymatic activity of TYK2 was assessed by detecting the substrate phosphorylation level in a kinase reaction using the HTRF kinase assay detection kit (Cisbio, Cat. No. 62TK0PEC).
as §1
A reaction buffer contained the following components: an enzyme reaction buffer (1×), 5 mM MgCl2 mM DTT and 0.01% Brij35 from the kit. A TYK2 kinase solution contained human recombinant TYK2 protein (Carna Biosciences, 08-147) diluted in the reaction buffer to 0.25 ng/μL. A substrate reaction solution contained 11.25 μM ATP and 0.5 μM of a biotinylated tyrosine kinase substrate from the kit in the reaction buffer. A detection solution contained 0.1 ng/μL Eu^3+-labeled cage antibody (Cisbio, 61T66KLB) and 25 nM streptavidin-1 added XL665 (Cisbio, 610SAXLB) in the reaction buffer.
as §2
as §3, with “TYK2” for “JAK2”, “test,” for “test”
The IC50 value of the test compound was calculated from 8 concentration points using the XLfit software (ID Business Solutions Ltd., UK) by the following formula: Y=Bottom+(Top−Bottom)/(1+10^((log IC50−X)slope factor)) […]

In assay [3] the test system is IL-12-induced IFN-γ secretion in NK92 cells. Kind of assay: Inhibition of IL-12-induced IFN-γ Secretion in NK92 Cells (ELISA). The settings on record: read-out: IC50 (NK92_IL12/IFNγ), 24 hours incubation, 8 concentration points. The method, then:
Inhibition of IL-12-induced IFN-γ Secretion in NK92 Cells
The effect of the compounds of the present invention on IFN-γ secretion induced by IL-12 in NK92 cells was evaluated by an enzyme-linked immunosorbent assay (ELISA).
IL-12 receptor is mainly expressed in activated T-cells, NK cells (NK92 is a NK cell line), DC cells, and B-cells. When binding to IL-12, it activates JAK2/TYK2 signal transduction pathway within NK cells and T lymphocytes, thereby inducing secretion of IFN-γ.
as §1
The test compound was dissolved in DMSO to 2.5 mM, followed by a serial 4-fold dilution with DMSO to a minimum concentration of […]. Each concentration was further diluted 50-fold with an FBS-free MEMα medium (Gibco, 12561-056).
NK92 cells (Nanjing Cobioer, CBP60980) were cultured in a complete MEMα medium containing 12.5% FBS (Ausbian, VS500T), 12.5% horse serum (Gibco, 16050-122), 0.02 mM folic acid (Sigma, F8758), 0.2 mM inositol (Sigma, 17850), 0.55 mM β-mercaptoethanol (Gibco, 21985-023), 200 U/mL IL-2 (R&D Systems, 202-1L), and 100 U/mL penicillin (Thermofisher, 15140122). […]
After overnight incubation, 10 μL of the test compound and 10 μL of 50 ng/mL IL-12 (R & D Systems, 219-1L) were added to each well and mix gently, and the 96-well plate was incubated in the 37° C./5% CO2 incubator for additional 24 hours. […] The amount of IFN-γ secretion was detected following the instruction from the Human IFN-γ DuoSet ELISA kit (R & D Systems, DY285B). […] The percentage of inhibition on IL-12 induced IFN-γ secretion in NK-92 cells by the test compound was calculated using the following formula: Percentage of inhibition=100−100*(signalcompound−signalnon-stimulated control)/(signalstimulated control−signalnon-stimulated control)
The IC50 value of the test compound was calculated front 8 concentration points using the XLfit software (ID Business Solutions Ltd., UK) by the following formula: Y=Bottom+(Top−Bottom)/(1+10^((log IC50−X)×slope factor)) […]
In general terms: An ELISA detects its analyte on a solid surface through an enzyme-linked reagent.

Regarding `Cc1cnc(Nc2cnn(C)c2)nc1N1C[C@]2(C)CN(C(=O)c3ccno3)C[C@]2(C)C1`, the IC50 in assay [1] was determined as 6.5 nM; in assay [2] it was 5.6 nM; in assay [3], 564 nM.
For `Cn1cc(Nc2ncc(Cl)c(N3C[C@]4(C)CN(C(=O)c5ccno5)C[C@]4(C)C3)n2)cn1`, the IC50 in assay [1] was determined as 3.9 nM; in assay [2], 0.9 nM; in assay [3], 591 nM.
The corresponding values for `Cn1cc(Nc2ncc(Cl)c(N3C[C@@]4(C)CN(S(=O)(=O)C5CC5)C[C@@]4(C)C3)n2)cn1` are 3 nM, 3.4 nM and 646 nM.
